Results on two molecules are retold here after PubChem BioAssay AID577 (University of Pittsburgh Molecular Library Screening Center, 2007).

By UniProt entry, the sequences of proteins in these tests, tags left out. Residues count along the entry.
UniProt P06935, 1371-1501 limits assumed: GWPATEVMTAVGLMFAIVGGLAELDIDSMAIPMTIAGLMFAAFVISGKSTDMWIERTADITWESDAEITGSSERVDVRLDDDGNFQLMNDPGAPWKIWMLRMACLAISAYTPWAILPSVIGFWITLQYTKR
UniProt P06935, 1502-1679 limits assumed: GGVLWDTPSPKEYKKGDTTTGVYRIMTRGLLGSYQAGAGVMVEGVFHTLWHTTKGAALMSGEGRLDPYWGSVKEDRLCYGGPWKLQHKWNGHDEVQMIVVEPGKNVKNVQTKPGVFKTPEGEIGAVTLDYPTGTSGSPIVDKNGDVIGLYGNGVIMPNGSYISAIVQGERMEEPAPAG

Only a part is listed here, and it is no random draw. Some results for these compounds are left out of this collection, so the calls shown say nothing about other tests. Activity calls are given as the source filed them. No stated cut-off is given here; in the data, active means z-score below about -3; inactive means the rest.

The experiment concerns the target Genome polyprotein (West Nile virus) (UniProt P06935). Briefly: West Nile NS2B-NS3 proteinase blockers – biochemical, fluorogenic substrate, primary screen (AID 577). The note with it: WNV NS2B-NS3 protease, fluorogenic substrate Ex360/Em465; hits give low values.
As to `O=C(OC1CN2CCC1CC2)C(CO)(c1ccccc1)c1ccccc1` (configuration not stated), the z-score is inactive: -0.82.

Consider `CN(C)c1cccc(C(=O)NCC2(N(C)C)CCCCC2)c1`, for which the z-score was inactive: -0.51.
